Test system: Cholecystokinin receptors CCK1 (Rattus norvegicus)/CCK2 (Mus musculus)
Test: Selectivity ratio of IC50 of CCK1 to that of CCK2

Row | SMILES | Selectivity
1 | O=C1NN(C(=O)Nc2ccc(Br)cc2)[C@H](c2ccccc2)[C@H]1c1ccccc1 | 0.05
2 | O=C1NN(C(=O)Nc2ccc(Br)cc2)[C@@H](c2ccccc2)[C@@H]1c1ccccc1 | 0.0009

— ChEMBL document CHEMBL1133649, “Development of peptide 3D structure mimetics: rational design of novel peptoid cholecystokinin receptor antagonists” (J Med Chem, 2000)
